# From BindingDB's records for 8632410
# Chains of the proteins cited; added tags and fusions are not shown. Lines headed by an entry give the natural chain unless they say otherwise; changes in a name come on top.
# UniProt P41143, whole entry, looked up: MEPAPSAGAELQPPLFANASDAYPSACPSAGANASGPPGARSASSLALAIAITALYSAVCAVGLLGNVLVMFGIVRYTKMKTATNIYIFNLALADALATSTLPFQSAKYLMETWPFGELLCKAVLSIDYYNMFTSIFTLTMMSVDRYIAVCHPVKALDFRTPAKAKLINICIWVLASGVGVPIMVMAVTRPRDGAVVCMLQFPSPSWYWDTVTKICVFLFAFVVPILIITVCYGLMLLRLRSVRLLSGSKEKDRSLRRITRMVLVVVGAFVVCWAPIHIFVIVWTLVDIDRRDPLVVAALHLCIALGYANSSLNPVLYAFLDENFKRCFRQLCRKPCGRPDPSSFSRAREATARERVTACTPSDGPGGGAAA
# UniProt P32239: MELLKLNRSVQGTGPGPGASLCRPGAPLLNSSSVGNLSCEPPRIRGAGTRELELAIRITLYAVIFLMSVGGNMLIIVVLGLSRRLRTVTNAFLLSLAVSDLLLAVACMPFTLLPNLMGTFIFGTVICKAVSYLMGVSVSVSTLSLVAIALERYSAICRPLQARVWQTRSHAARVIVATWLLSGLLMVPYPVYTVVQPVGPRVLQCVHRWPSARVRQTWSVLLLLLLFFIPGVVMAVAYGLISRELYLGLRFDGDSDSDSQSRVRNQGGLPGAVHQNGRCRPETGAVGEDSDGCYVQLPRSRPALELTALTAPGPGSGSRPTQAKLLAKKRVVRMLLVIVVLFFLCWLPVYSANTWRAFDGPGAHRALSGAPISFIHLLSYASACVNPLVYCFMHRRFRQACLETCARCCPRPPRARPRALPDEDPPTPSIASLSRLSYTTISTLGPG
# Experiments:
# [1] = target: T1, Delta-type opioid receptor (Homo sapiens, UniProt P41143); assay: Binding affinity against Opioid receptor delta 1 using [3H]DADLE as radioligand in guinea pig brain
# [2] = target: Gastrin/cholecystokinin type B receptor (Homo sapiens, UniProt P32239); assay: Binding affinity against Cholecystokinin type B receptor using [3H](MeNLE28,31)-CCK-8 as radioligand in guinea pig cerebral cortex.
# [3] = target: T1, Delta-type opioid receptor; assay: Binding affinity against delta Opioid receptor delta 1 using [3H]DADLE as radioligand in guinea pig brain
Compound,Ki [1] [nM],Ki [2] [nM],Ki [3] [nM]
CN1c2ccccc2C(c2ccccc2)=NCC1CCNC(=O)c1ccccc1F (configuration not stated),> 300,,
CN1c2ccc(Cl)cc2C(c2ccccc2)=NCC1CCNC(=O)c1ccc(F)cc1 (configuration not stated),1000,,
CN1c2ccccc2C(c2ccccc2F)=NCC1CNC(=O)c1ccsc1 (configuration not stated),153,> 100000,
CN1c2ccc(Cl)cc2C(c2ccccc2)=NCC1CCNC(=O)c1cc2ccccc2[nH]1 (configuration not stated),,,> 1000
CN1c2ccc(Cl)cc2C(c2ccccc2)=NCC1CCNC(=O)c1cccs1 (configuration not stated),> 1000,17000,
CN1c2ccc(Cl)cc2C(c2ccccc2)=NCC1CCNC(=O)c1ccccc1F (configuration not stated),> 1000,,
CN1c2ccc(Cl)cc2C(c2ccccc2)=NCC1CCNC(=O)c1ccc(Cl)cc1 (configuration not stated),,,> 1000
CN1c2ccccc2C(c2ccccc2)=NCC1CCNC(=O)c1ccc(F)cc1 (configuration not stated),275,,
CN1c2ccccc2C(c2ccccc2)=NCC1CCNC(=O)c1cccs1 (configuration not stated),105,13000,
